# Assay outcomes: PubChem, National Center for Advancing Translational Sciences (NCATS)
# Nrf2 inh: Nrf2 pathway inhibition; Potency, µM (top dose mostly 46 µM), for the others: top-dose activity change, negative = inhibition, most hits filed as inhibitors; AID 504444; A549 ARE-Fluc reporter, luciferase luminescence, 18-24 h; 360,000 compounds, 2.1% hits; also: potency is read from the fitted curve at half-maximal effect; % is scaled to controls: 0 for no effect and ±100 for the full control effect; nearly all actives have a fitted effect of over 60% in size
#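 In this cell-based qHTS, ARE-driven firefly luciferase in A549 cells reports Nrf2 activity; the luminescent signal after BugLite lysis is the measured value, with a prior CellTiter-Fluor read for cell health.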
# miR-21 reporter: miR-21 reporter, rising signal | HeLa miR-21 FLuc reporter, luciferase, 48 h | Potency, µM (top dose mostly 38.3 µM), inactives show at the highest dose reporter change, positive = more light | 340,000 tested, under 10 active | AID 2288; active = well fitted rising curve with a large enough effect; inconclusive = small, poorly fitted or top-dose-only effect; inactive = no such curve, though single readings can be large or run the other way;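 note: % of control where 0% means no effect; miR-21 action dims this reporter so a rising signal means less miR-21 action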
#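 HeLa miR-21-FLuc reporter line, endogenous miR-21; 2000 cells/well in DMEM/10% FBS; compound titration up to ~40uM final, 48 h, 37 degree Celsius; luciferase detection reagent, 15 min lysis, CCD luminescence.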
# ClpP mod: qHTS Assay for Activators of ClpP. ATP-dependent Clp protease proteolytic subunit (Bacillus subtilis (strain 168)), P80244. purified B. subtilis ClpP, FRET peptide cleavage, 20 min. Potency, µM (highest dose often 57.5 µM), without a hit: top-dose activity change, negative = active. 340,000 compounds, 1.9% hits; active = well fitted falling curve with a large enough effect; inconclusive = small, poorly fitted or top-dose-only effect; inactive = no such curve, though single readings can be large or run the other way; also: potency is read from the fitted curve at half-maximal effect; the source files actives as falling curves though it sought activators and does not explain the sign; nearly all actives have a fitted effect of over 65% in size
#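 ClpP 10 microg/mL final, pH 8 Tris/KCl buffer with BSA, glycerol, Tween-20; compound pinned in; FRET-FV substrate; RT 20 min; Ex320/Em430; ΔFRET vs ADEP 5.8 microM, DMSO, no enzyme.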
# A549 tox: counter-screen for Nrf2 inhibitors: cytotoxicity in A549 cells | A549 ARE-Fluc cells, CellTiter-Fluor viability, 18-24 h | Potency, µM (doses to about 46 µM), inactives show top-dose activity change, negative = cytotoxicity, usual class: inhibitors | 390,000 compounds, 0.16% hits | AID 504648; also: potency is read from the fitted curve at half-maximal effect; % is scaled to controls: 0 for no effect and ±100 for the full control effect
#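 A549 ARE-Fluc cells in 5% FBS OPTI-MEM, 5000 cells/well, rested 2 h then exposed to compounds in concentration-response for 18-24 h at 37 °C. Viability by CellTiter-Fluor fluorescence (Ex 405/Em 525) after 30 min; luciferase luminescence (BugLite, 15 min, RT) read afterwards.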
# Nrf2 ARE act: Nrf2 pathway activation; AREc32 ARE-luciferase reporter (MCF7-derived line), luminescence, 24 h; Potency, µM (series often up to 46.1 µM), for inactives: top-dose activation, hits mostly activators; 410,000 compounds, 0.31% hits; AID 624171; also: potency is read from the fitted curve at half-maximal effect; % of control where 0% means no effect; nearly all actives have a fitted effect of over 65% in size
#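 For detection, Steady-Glo was added and plates sat 30 min at RT; before that, AREc32_Fluc cells grown overnight in OPTI-MEM/5% FBS had been treated with 23 nL compound for 24 hr at 37 deg C.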
# TCR activator: activators of T cell receptors | primary human leukocytes, anti-CD3, IL-2 HTRF, 48 h | AID 504894 | Potency, µM (highest dose often 9.22 µM), for inactives: top-dose activation of IL-2 secretion, most hits filed as activators | 330,000 tested, under 10 active; also: % of control where 0% means no effect
#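 TCR engagement came from a-CD3 beads alone, with compounds added to primary human leukocytes for 48 hr. Secreted IL-2 bridged europium cryptate- and d2-labelled anti-IL-2 antibodies, giving FRET emission at 665nm after 320nm excitation.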
# Starred values were filed as active, the others as inactive; ? = inconclusive; . = no result; [ ] = another dose, or the depositor's remark. An excerpt weighted towards active compounds, which were near 3.7% of everything screened. Unless noted, calls follow the shape of the dose curve; as a rule, active = well fitted curve in the direction sought with a large enough effect; inconclusive = small, poorly fitted or top-dose-only effect, or another doubt; inactive = no such curve, though single readings can be large; an effect the other way counts as inactive or inconclusive.
# Start of the data: the first 2 entries as a preview:
SMILES,Nrf2 inh,miR-21 reporter,ClpP mod,A549 tox,Nrf2 ARE act,TCR activator
O=[N+]([O-])c1ccc(Nc2ccccc2)c2nonc12,-28%,-1%,0%,?,20%,1%
CCOC(=O)N(C(=O)c1ccccc1)c1ccccc1,.,.,1%,.,.,.

# The whole of this part, repeating the preview:
SMILES,Nrf2 inh,miR-21 reporter,ClpP mod,A549 tox,Nrf2 ARE act,TCR activator
O=[N+]([O-])c1ccc(Nc2ccccc2)c2nonc12,-28%,-1%,0%,?,20%,1%
CCOC(=O)N(C(=O)c1ccccc1)c1ccccc1,.,.,1%,.,.,.
CC(C)=NNc1cnnc2ccc([N+](=O)[O-])cc12,.,.,-1%,.,3.5µM*,.
CN(C)c1ccc(-c2nnc(SCC(=O)NCc3ccco3)n2C)cc1,.,.,-8%,.,.,.
COc1ccc(N(CC(=O)Nc2cc(C)ccc2OC)S(=O)(=O)c2c(C)noc2C)cc1,8.2µM*,19%,1%,?,0%,2%
COc1ccc(N(CC(=O)NCCc2ccc(C)cc2)S(=O)(=O)c2c(C)noc2C)cc1,23µM*,0%,-1%,-19%,2%,-2%
COc1ccc(N(CC(=O)NCCc2cccc(C)c2)S(=O)(=O)c2c(C)noc2C)cc1,?,5%,-1%,0%,0%,-6%
COc1ccccc1NC(=O)N(CCCN1CCOCC1)Cc1cc2cc3c(cc2[nH]c1=O)OCO3,4%,-4%,20µM*,-3%,-1%,2%
COc1cc2cc(CN(CCCN3CCOCC3)C(=O)Nc3ccccc3F)c(=O)[nH]c2cc1OC,0%,3%,.,0%,0%,0%
O=C(Nc1ccc(F)cc1)N(CCCN1CCOCC1)Cc1cc2cc3c(cc2[nH]c1=O)OCCO3,17%,-13%,25µM*,2%,3%,0%
CCOC(=O)c1cccc(NC(=O)CSc2cc(=O)n(C)c3ccccc23)c1,?,-13%,0%,-3%,-1%,.
Cn1nc(C(=O)N2CCCC2)c2ccccc2c1=O,11%,-3%,-1%,-4%,0%,-1%
CSc1ccc(C(=O)C2CCCN(C(=O)c3nn(C)c(=O)c4ccccc34)C2)cc1 (configuration not stated),18µM*,-1%,.,-18%,3%,-2%
CC(=O)Nc1ccc2ccc3cccc4ccc1c2c34,-11%,-19%,14µM*,-6%,1%,-3%[46.1 µM]
COc1ccc(NC(=O)COC(=O)CN2C(=O)C3CCCCC3C2=O)cc1OC (configuration not stated),-8%,.,-1%,6%,0%,65%
CCCCCCC(=O)Nc1c2c(nc3ccccc13)N(C)CC2,3%,-6%,28µM*,-5%,-1%,0%
CCCCCC(=O)Nc1cc(N(C)C)nc2ccccc12,-8%,8%,28µM*,3%,2%,1%
CCN(CC)CC(=O)Nc1cc(N(C)C)nc2ccccc12,4%,-3%,.,-1%,2%,-2%
COc1ccc(-c2nc3cccc(C)n3c2NCc2ccco2)cc1OC,14%,-15%,14µM*,2%,9%,2%
COc1ccc(-c2ccc(C#N)c(SCC(=O)NCc3ccco3)n2)cc1OC,-8%,-2%,.,-1%,0%,-2%
N#Cc1c(-c2cccc(Br)c2)cc(-c2cccnc2)nc1N,12%,16%,32µM*,-6%,4%,2%[46.1 µM]
N#Cc1c(-c2ccc(Br)cc2)cc(-c2cccnc2)nc1N,-7%,-12%,-3%,2%,5%,0%[46.1 µM]
N#Cc1cc(C(=O)c2ccccc2O)cn(-c2nccs2)c1=O,-2%,5%,-13%,0%,22µM*,3%[46.1 µM]
COc1cc(/C=N/NC(=O)CCN2CCN(C)CC2)cc2c1OCO2,6%,0%,16µM*,11%,-1%,4%
COc1cc(/C=N/NC(=O)c2ccncc2)cc2c1OCO2,3%,3%,0%,-5%,0%,-8%
Cc1ccc(NC(=O)CCS(=O)(=O)c2ccc3c(c2)NC(=O)C(C)S3)nc1 (configuration not stated),9%,5%,-2%,0%,0%,0%
Cc1ccc(C(=O)Nc2ccc(N3CCN(C(=O)c4ccco4)CC3)cc2)cc1,-7%,5%,.,0%,0%,-2%

# 3 entries from above, arranged by their value in Nrf2 inh, rising:
Molecule	Nrf2 inh
CCCCCC(=O)Nc1cc(N(C)C)nc2ccccc12	-8%
N#Cc1c(-c2ccc(Br)cc2)cc(-c2cccnc2)nc1N	-7%
COc1cc(/C=N/NC(=O)CCN2CCN(C)CC2)cc2c1OCO2	6%
